Target: human hERG (Homo sapiens (Human), UniProt Q12809)
Experiment: Inhibition of human hERG via automated whole cell patch clamp
Assay type: cell-based
Conditions: safety margin for the free drug (SM-free)
Protocol: An automated whole cell patch-clamp system (QPATCH® 16) is used to record outward potassium currents from a single cell. The assay employs CHO-K1 (Chinese Hamster Ovary) cells stably transfected with human hERG cDNA. The cells are harvested by trypsinization and maintained in serum-free medium at room temperature before recording. The cells are washed and re-suspended in the extracellular solution before being applied to the automated patch-clamp sites. The test solutions are prepared in the aqueous extracellular solution (137 mM NaCl, 4 mM KCl, 1.8 mM CaCl2), 1 mM MgCl2, 10 mM D(+)-Glucose, 10 mM HEPES, pH adjusted to 7.4 with NaOH) on the day of patch-clamp assay. Seven concentrations (0.03, 0.1, 0.3, 1, 3, 10, and 30 μM) of the test compound are used to determine IC50. The aqueous intracellular solution contains 130 mM KCl, 10 mM NaCl, 1 mM MgCl2, 10 mM EGTA, 5 mM MgATP, and 10 mM HEPES (pH adjusted to 7.2 with KOH).
After whole cell configuration is achieved, the cell is held at −80 mV. A 50 ms pulse to −40 mV is delivered to measure the leaking current, which is subtracted from the tail current on-line. […] The percent inhibition of hERG channel is calculated by comparing the tail current amplitude before and after application of the compound (the current difference is normalized to the control).

Sequences of proteins named here, by UniProt entry; tags and fusion partners are left off. A change or cut given only in a name is not applied to a line headed by its entry.
UniProt Q12809: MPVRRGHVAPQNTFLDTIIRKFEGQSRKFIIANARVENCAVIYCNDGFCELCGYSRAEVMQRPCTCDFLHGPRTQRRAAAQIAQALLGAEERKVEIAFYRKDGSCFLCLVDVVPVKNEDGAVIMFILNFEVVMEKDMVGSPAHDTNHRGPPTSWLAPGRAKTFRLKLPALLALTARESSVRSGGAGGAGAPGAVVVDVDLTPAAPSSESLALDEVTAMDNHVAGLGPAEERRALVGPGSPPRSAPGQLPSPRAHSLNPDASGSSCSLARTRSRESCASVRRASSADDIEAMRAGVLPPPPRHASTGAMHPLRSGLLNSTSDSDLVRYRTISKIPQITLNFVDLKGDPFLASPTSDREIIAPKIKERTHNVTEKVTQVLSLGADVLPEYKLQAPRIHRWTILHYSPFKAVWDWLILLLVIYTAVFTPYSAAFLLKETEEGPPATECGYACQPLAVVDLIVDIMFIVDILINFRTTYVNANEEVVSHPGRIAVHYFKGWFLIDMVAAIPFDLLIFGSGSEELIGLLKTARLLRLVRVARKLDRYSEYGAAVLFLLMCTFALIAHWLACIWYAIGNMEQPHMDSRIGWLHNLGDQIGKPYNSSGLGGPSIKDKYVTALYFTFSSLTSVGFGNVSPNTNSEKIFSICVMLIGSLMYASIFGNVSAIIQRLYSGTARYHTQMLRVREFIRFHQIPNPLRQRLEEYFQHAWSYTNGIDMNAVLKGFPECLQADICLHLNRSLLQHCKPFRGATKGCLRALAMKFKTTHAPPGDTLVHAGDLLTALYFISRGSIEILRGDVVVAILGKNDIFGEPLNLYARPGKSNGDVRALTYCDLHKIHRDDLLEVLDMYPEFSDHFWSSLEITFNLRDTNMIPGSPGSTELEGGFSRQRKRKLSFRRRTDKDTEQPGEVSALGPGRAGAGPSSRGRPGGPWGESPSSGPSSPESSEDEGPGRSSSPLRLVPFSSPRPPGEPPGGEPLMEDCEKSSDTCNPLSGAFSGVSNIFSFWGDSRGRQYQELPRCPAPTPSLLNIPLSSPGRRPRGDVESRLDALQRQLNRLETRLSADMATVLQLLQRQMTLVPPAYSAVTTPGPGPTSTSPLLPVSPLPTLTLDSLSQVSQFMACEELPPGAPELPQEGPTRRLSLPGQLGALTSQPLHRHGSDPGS

## CC(=O)N1CCc2nc(N3CCC(Oc4ccc(F)cc4F)CC3)c(N[C@@H]3CCOC3)nc2C1 [Formula 1, (R)-1-(2-(4-(2,4-difluorophenoxy)piperidin-1-yl)-3-((tetrahydrofuran-3-yl)amino)-7,8-dihydropyrido[3,4-b]pyrazin-6(5H)-yl)ethan-1-one]
  (hERG IC50)/Ki: 358

## CC(=O)N1CCc2nc(N3CCC(Oc4ccc(F)cc4F)CC3)c(N[C@H]3CCOC3)nc2C1 [Compound A, (S)-1-(2-(4-(2,4-difluorophenoxy)piperidin-1-yl)-3-((tetrahydrofuran-3-yl)amino)-7,8-dihydropyrido[3,4-b]pyrazin-6(5H)-yl)ethan-1-one, reference compound]
  (hERG IC50)/Ki: 84
